From patent US6809209B2, “Nitrogen-containing group-13 anionic compounds for olefin polymerization” (ExxonMobil Chemical Patents Inc., priority 2000, dated 2004)

Assay: Solubility test in pentane
Assay type: physicochemical
Settings: stirred 30 minutes, filtered, filtrate evaporated
Description: Procedure: To 0.023 g of the invention compound [C6H5NBu2(H)][4-(C6H5 {Et3Si})—C6F4]4B was added 0.735 grams of pentane. The mixture was stirred for 30 minutes. The resulting mixture was filtered to remove undissolved solids. An portion of the filtrate weighing 0.423 grams was evaporated. After solvent removal the vessel contents, the borate salt, weighed 0.011 grams (2.6 wt %). Under analogous experimental conditions with another invention compound [C6H5NMe2(H)][4-(C6F5N{Me3Si})—C6F4]4B, no visible amount of activator remained from the filtrate after evaporation.

| Substance | solubility in pentane (borate salt recovered from filtrate) [wt %] |
| --- | --- |
| N,N-dibutyl anilinium tetrakis(4-(N-pentafluoro-N-triethylsilylamino)tetrafluorophenyl)borate [A^6] | 2.6 |
| N,N-dimethyl anilinium tetrakis (4-(N-pentafluorophenyl-N-trimethylsilylamino)tetrafluorophenyl) borate [A^2] | < 0.01 |
